In patent publication US11202833B2, “Methylglyoxal-scavenging cyclic peptides and their use for the prevention and treatment of diseases associated with elevated methylglyoxal levels” (RUPRECHT-KARLS-UNIVERSITÄT HEIDELBERG, priority 2016, dated 2021):

Tested on: human serum albumin (HSA)
Assay: Competitive inhibition of HSA MG-H1 formation
Assay type: biochemical
Conditions: FIG. 2B; HSA with MG and scavenger
Procedure: In short, pure MG-1,1-dimethylacetal was heated in sulphuric acid solution for 1 h and fractionally distilled in a column containing glass helices under reduced pressure. Fractions were analyzed by ^1H and ^13C NMR. […] Two parts urea (8M urea, 0.5 M TrisHCl; pH8.0) were added to the solution and the sample was vortexed. HSA was precipitated by addition of two parts acetonitrile (respective to the final sample/urea mixture) and collected by centrifugation for 10′ at 13000 g. […] The HSA containing pellet was dissolved in 20 mM HCl and the protein content was determined by BCA assay. […] The amount of HSA-MG-H1 adduct was determined by LC-MS. Samples and standard curve were spiked with d3-MG-H1 (Polypeptide Group, San Diego, Calif., USA) and derivatized with Fmoc-Cl. Separation was performed on a C18 column (Hypersil Gold aQ; Thermo Scientific, USA) using a 20 min gradient of 0-100% acetonitrile (0.1% TFA) with the first five minutes diverted to waste. Analysis was carried out on an Exactive Orbitrap MS system (Thermo Scientific, USA). […] The calibration range used for the assay was 0-30 pmol.

CN(CC(=O)O)C(=N)N [Cre, creatine]
prevention of HSA-MG-H1 formation: only a trend
